According to article PMC7835894, “Revealing the Potential Application of EC-Synthetic Retinoid Analogues in Anticancer Therapy” (Molecules, 2021):

Experiments:
Assay type in all cases: cell-based, human
WI-38 = experiment: MTT antiproliferation/cytotoxicity assay; settings: SI = IC50 (WI-38)/IC50 (cell line)
Description: The antiproliferation and cytotoxicity were assessed using 3-(4,5-dimethylthiazol-2-yl)-2,5-diphenyltetrazolium bromide (MTT, Serva) colorimetric assay. To investigate the antiproliferation, all cell lines were seeded at a density of 20,000 cells per well in 96-well plates and allowed to adhere overnight. The attached cells were treated with five series concentrations (0.01, 0.1, 1, 10, and 100 μM) of synthetic retinoids (EC19 and EC23) and ATRA (standard retinoid positive control) in triplicate. These concentrations were prepared by diluting the stock solutions with serum-free culture media. The negative control cells were those treated with 0.1% DMSO solvent alone. The treated cells were handled in reduced light and maintained under standard culture growth conditions for 24 h. After the incubation period, MTT powder was prepared as a stock solution (5 mg/mL) and 20 μL of the MTT working reagent (final concentration 0.5 mg/mL) was added to each well. This was followed by incubation with MTT reagent for 4 h in a humidified atmosphere (37 °C, 5% CO2) with subsequent addition of 150 μL of DMSO solubilizing solvent and incubation for 20 min. The absorbance of solubilized violet formazan crystals was measured at 540 nm with Biotek 800 TS microplate reader. IC50 was calculated as the concentration of retinoid that produced 50% cell growth inhibition. […]

Caspase-3 (Cas-3) = experiment: Gene expression analysis (qPCR) in Caco-2 cells; settings: Caco-2, IC50, 24 h, relative to 0.1% DMSO control
Description: (§1) Sensitive cancer cell line (Caco-2) was used for gene expression analysis of different genes controlling differentiation, apoptosis, tumor resistance, aggressiveness, and metastasis. […] After incubation, cells were harvested, and the total RNA was purified using Favor-Prep^TM Blood/Cultured cell total RNA purification mini kit (Favorgen Biotech Corp., Ping-Tung, Taiwan). RNA was reverse transcribed into the first-strand cDNA using Revert Aid First Strand cDNA Synthesis Kit (Thermo Scientific, Waltham, MA, USA). HERA^PLUS SYBR® Green qPCR Kit (Willowfort, Nottingham, UK) was utilized in quantitative polymerase chain reactions (qPCR). Gene expression was analyzed and quantified using the 2ˆ^−ΔΔCT method.

RAR-γ = experiment: Gene expression analysis (qPCR) in Caco-2 cells; settings: Caco-2, IC50, 24 h, relative to 0.1% DMSO control, normalized to GAPDH
Description: as §1

Bax = experiment: Gene expression analysis (qPCR) in Caco-2 cells; settings: Caco-2, IC50, 24 h, relative to 0.1% DMSO control
Description: as §1

Caspase-8 (Cas-8) = experiment: Gene expression analysis (qPCR) in Caco-2 cells; settings: Caco-2, IC50, 24 h, relative to 0.1% DMSO control
Description: as §1

RAI2 = experiment: Gene expression analysis (qPCR) in Caco-2 cells; settings: Caco-2, IC50, 24 h, relative to 0.1% DMSO control
Description: as §1

WRN = experiment: Gene expression analysis (qPCR) in Caco-2 cells; settings: Caco-2, IC50, 24 h, relative to 0.1% DMSO control
Description: as §1

p53 = experiment: Gene expression analysis (qPCR) in Caco-2 cells; settings: Caco-2, IC50, 24 h, relative to 0.1% DMSO control
Description: as §1

RAR-β = experiment: Gene expression analysis (qPCR) in Caco-2 cells; settings: Caco-2, IC50, 24 h, relative to 0.1% DMSO control, normalized to GAPDH
Description: as §1

E-cadherin = experiment: Gene expression analysis (qPCR) in Caco-2 cells; settings: Caco-2, IC50, 24 h, relative to 0.1% DMSO control
Description: as §1

cytochrome-C (Cyt-C) = experiment: Gene expression analysis (qPCR) in Caco-2 cells; settings: Caco-2, IC50, 24 h, relative to 0.1% DMSO control
Description: as §1

RAR-α = experiment: Gene expression analysis (qPCR) in Caco-2 cells; settings: Caco-2, IC50, 24 h, relative to 0.1% DMSO control, normalized to GAPDH
Description: as §1

Caco-2 cells [1] = experiment: Isobologram analysis of retinoid + 5-FU combinations (MTT); settings: Caco-2, combination with 5-FU
Excerpt: This mathematical model allows the determination of CI (combination index) values based on the Equation (1):CI = d1/D1 + d2/D2 (1) where d1 and d2 are the doses of drug 1 and drug 2 that, when given in combination, produce a specific response. D1 and D2 are the doses of drug 1 and drug 2, that, when given individually, produce the same response. Also, CI < 1 is synergy, CI = 1 is additivity and CI > 1 is antagonism
DRI < 1 indicates unfavorable dose reduction and ineffective combination.

MDA-MB 231 = experiment: MTT antiproliferation assay; settings: SI = IC50 (WI-38)/IC50 (cancer cell line)
Description: (§2) The antiproliferation and cytotoxicity were assessed using 3-(4,5-dimethylthiazol-2-yl)-2,5-diphenyltetrazolium bromide (MTT, Serva) colorimetric assay. To investigate the antiproliferation, all cell lines were seeded at a density of 20,000 cells per well in 96-well plates and allowed to adhere overnight. The attached cells were treated with five series concentrations (0.01, 0.1, 1, 10, and 100 μM) of synthetic retinoids (EC19 and EC23) and ATRA (standard retinoid positive control) in triplicate. These concentrations were prepared by diluting the stock solutions with serum-free culture media. The negative control cells were those treated with 0.1% DMSO solvent alone. The treated cells were handled in reduced light and maintained under standard culture growth conditions for 24 h. After the incubation period, MTT powder was prepared as a stock solution (5 mg/mL) and 20 μL of the MTT working reagent (final concentration 0.5 mg/mL) was added to each well. This was followed by incubation with MTT reagent for 4 h in a humidified atmosphere (37 °C, 5% CO2) with subsequent addition of 150 μL of DMSO solubilizing solvent and incubation for 20 min. The absorbance of solubilized violet formazan crystals was measured at 540 nm with Biotek 800 TS microplate reader. IC50 was calculated as the concentration of retinoid that produced 50% cell growth inhibition. For cytotoxicity assessment, WI-38 normal human fibroblast cells were used for the calculation of SI which is the ratio of IC50 retinoid (WI-38)/IC50 retinoid (cancer cell line).

Caco-2 = experiment: MTT antiproliferation assay; settings: SI = IC50 (WI-38)/IC50 (cancer cell line)
Description: as §2

PC3 = experiment: MTT antiproliferation assay; settings: SI = IC50 (WI-38)/IC50 (cancer cell line)
Description: as §2

HT-29 = experiment: MTT antiproliferation assay; settings: SI = IC50 (WI-38)/IC50 (cancer cell line)
Description: as §2

HepG2 = experiment: MTT antiproliferation assay; settings: SI = IC50 (WI-38)/IC50 (cancer cell line)
Description: as §2

A549 = experiment: MTT antiproliferation assay; settings: SI = IC50 (WI-38)/IC50 (cancer cell line)
Description: as §2

DU-145 = experiment: MTT antiproliferation assay; settings: SI = IC50 (WI-38)/IC50 (cancer cell line)
Description: as §2

Huh7 = experiment: MTT antiproliferation assay; settings: SI = IC50 (WI-38)/IC50 (cancer cell line)
Description: as §2

HCT-116 = experiment: MTT antiproliferation assay; settings: SI = IC50 (WI-38)/IC50 (cancer cell line)
Description: as §2

Caco-2 cells [2] = experiment: Annexin V-FITC/PI apoptosis assay (flow cytometry); settings: Caco-2, IC50 concentration, 12 h treatment
Description: The ability of synthetic retinoids to induce apoptosis in one of the sensitive cancer cell lines (namely, Caco-2 cells) was detected by Annexin V-FITC and PI according to the protocol of the detection kit (Beckman Coulter, Brea, CA, USA). […] Cells were collected, washed with phosphate-buffered saline (PBS) (Lonza), and resuspended in 1 mL of binding buffer. 100 µL cell suspension was incubated with 1 µL FITC-labeled Annexin V and 5 µL PI for 15 min at 4 °C in the dark. Finally, 400 µL ice-cold binding buffer was added, and the apoptotic cells in each sample were analyzed by Beckman Coulter Epics XL flow cytometer. Apoptotic index (AI) was calculated as the number of apoptotic cell deaths expressed as a percentage from the total gated cells.

Which results are given for `CC1=C(/C=C/C(C)=C/C=C/C(C)=C/C(=O)O)C(C)(C)CCC1` [ATRA, All-trans retinoic acid, reference compound]?
SI (selectivity index) (WI-38): 1; Cas-3 gene expression, fold change (Caspase-3 (Cas-3)): 1.5 fold; RAR-γ gene expression, fold increase (RAR-γ): 2.5 fold; Bax gene expression, fold change (Bax): 1.6 fold; Cas-8 gene expression, fold change (Caspase-8 (Cas-8)): 1.2 fold; RAI2 gene expression, fold change (RAI2): 41.6 fold; WRN gene expression, fold change (WRN): 20 fold; p53 gene expression, fold change (p53): 1.2 fold; RAR-β gene expression, fold increase (RAR-β): 35 fold; E-cadherin gene expression, fold change (E-cadherin): did not show any significant increase; Cyt-C gene expression, fold change (cytochrome-C (Cyt-C)): 7.7 fold; RAR-α gene expression, fold increase (RAR-α): no significant effect; DRI (dose reduction index) (Caco-2 cells [1]): 6.9 ± 0.7; CI (combination index) (Caco-2 cells [1]; CI < 1 is synergy): 0.29 ± 0.03; SI (selectivity index) (MDA-MB 231): <1; SI (selectivity index) (Caco-2): 0.59 ± 0.01; SI (selectivity index) (PC3): <1; SI (selectivity index) (HT-29): >1; SI (selectivity index) (HepG2): 0.94 ± 0.02; SI (selectivity index) (A549): 0.4 ± 0.01; SI (selectivity index) (DU-145): <1; SI (selectivity index) (Huh7): <1; SI (selectivity index) (HCT-116): <1; % Apoptotic index (AI) (Caco-2 cells [2]): 12%
